Laboratory results taken from US6403034B1, “Method of reducing the concentration of recalcitrant organic contamination in a soil matrix” (priority 1995, dated 2002).

Assay: Pesticide Test 2: gaseous ozone injected into soil column
Assay type: physicochemical
Settings: for Soil Column T = 75 hours / percent removed: 75 hours of 300 mL/min of 5% ozone; for Soil Column T = 0: before ozonation

| Substance | Soil Column T = 75 hours | percent removed [%] | Soil Column T = 0 |
| --- | --- | --- | --- |
| 4,4′-DDD | 15,500 μg/kg | 70.5 | 52,500 μg/kg |
| 4,4′-DDE | 3,650 μg/kg | 69.6 | 12,000 μg/kg |
| 4,4′-DDT | 41,000 μg/kg | 67.2 | 125,000 μg/kg |
